In patent US20110294738A1, “PTHR1 RECEPTOR COMPOUNDS” (priority 2008, published 2011):

Biological target: PTHR1 receptor

In the case of RETNAGRSDTRQ (N-terminal palmitoyl (Pal-) and C-terminal amide, by the method of Compound 82) [Compound 63], the Inhibition of Maximal Response is reported as 1.2%.
